# Laboratory results reported in ChEMBL document CHEMBL1125773, “Analogues of oxybutynin. Synthesis and antimuscarinic and bladder activity of some substituted 7-amino-1-hydroxy-5-heptyn-2-ones and related compounds” (1991).
# Key:
# Cavia porcellus [1] = experiment: Effect on in vivo functional detrusor muscle contraction strength using guinea pig model of cystometrogram; settings: Muscle tissue
# Cavia porcellus [2] = species on record: Cavia porcellus; experiment: Antimuscarinic effect determined by comparing ability to inhibit carbachol-induced guinea pig detrusor muscle contractions; assay type: functional
structure (smiles),measurement,setting,value
CC(C)(C)NCC#CCCC(=O)C(O)(c1ccccc1)C1CCCCC1 (configuration not stated),Potency,Cavia porcellus [1],8.9
same,Kb,Cavia porcellus [2],4.3 µM
